Results taken from paper PMC8900822 (Acta Crystallographica. Section D, Structural Biology, 2022).

What was measured:
[1] = test system: SmCA
[2] = test system: SazCA; conditions: SazCA over hCA I

Nc1cc(C(Cl)=C(Cl)Cl)c(S(N)(=O)=O)cc1S(N)(=O)=O [Clorsulon, 4-Amino-6-(1,2,2-trichlorovinyl)benzene-1,3-disulfonamide]
SI (hCA I/SmCA) [1]: 20 and 20.09
selectivity index (SI) with respect to hCA I [2]: 580 fold

Several values for one entry are separate records, joined by “and”; a condition that tells them apart may be missing. Equal values may be shown once.
